The subject of this data set is alkaline phosphatase. Particulars: alkaline phosphatase 50 ng/well; rabbit antisera, day 35 test bleed; FIG. 1.

alkaline phosphatase: the “binding of the antiserum raised against the antigen to immobilized alkaline phosphatase (immunogenicity)” value was “strong binding”.

The record behind these values is patent publication US5091176A, “Polymer-modified peptide drugs having enhanced biological and pharmacological activities” (W. R. Grace & Co.-Conn., priority 1990, dated 1992).
